# Reported boiling point values for industrial, environmental and drug-like chemicals

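These are experimental values that the OPERA curators gathered from public databases to train and test their QSAR models. A listed value is a point estimate from one report or more. Method, purity and exact conditions of the single measurements are not given. A value may pool stereoisomers or salt forms, and the file does not say which form was measured. Some entries may be limits or estimates that an upstream database listed as plain numbers.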

The boiling point refers to atmospheric pressure (760 mmHg), by the definition of the set. Cells with "n/a" have no entry in this list. The databases behind each value are named after "via".

SMILES	name	boiling point (°C)	via
CCCCOC(=O)CC(SP(=S)(OCCC)OCCC)C(=O)OCCCC (stereo not drawn)	n/a	359.9	eChemPortal
C#CCC1=C(C)C(OC(=O)C2C(C=C(C)C)C2(C)C)CC1=O (stereo not drawn)	Prallethrin	313.8	OCHEM, PubChem
CCOP(=S)(OCC)Oc1cnccn1	Thionazin	80	OCHEM, PubChem
C=C(C#N)C(=O)OC(C)CCCCCC (stereo not drawn)	2-Propenoic acid, 2-cyano-, 1-methylheptyl ester	257	eChemPortal
FC(F)=C(F)OC(F)(F)OC(F)(F)F	1-[Difluoro(trifluoromethoxy)methoxy]-1,2,2-trifluoroethene	19.5	eChemPortal
COC(F)(F)C(F)(F)F	Pentafluoromethoxyethane	5.6	ChemicalBook
N=C(Nc1ccccc1)Nc1ccccc1	1,3-Diphenylguanidine	170	PubChem
N#C[C@@H](O)c1cccc(Oc2ccccc2)c1	(2S)-Hydroxy(3-phenoxyphenyl)acetonitrile	320.7	eChemPortal
COP(=S)(OC)Oc1ccc([N+](=O)[O-])cc1	Methyl parathion	142.8	PubChem
O=C(O)C(Br)Br	Dibromoacetic acid	233	PubChem
C(OCC1CO1)C(COCC1CO1)OCC1CO1 (stereo not drawn)	n/a	280.6	eChemPortal
CCOP(=S)(Oc1cnc(C(C)(C)C)nc1)OC(C)C (stereo not drawn)	Tebupirimfos	152	OCHEM, PubChem
COC[C@H](C)N(C(=O)CCl)c1c(C)csc1C	Dimethenamid-P	280	OCHEM, PubChem
CNC(=O)/C=C(\C)OP(=O)(OC)OC	Monocrotophos	125	PubChem
CC(C)CC(C)Nc1ccc(Nc2ccccc2)cc1 (stereo not drawn)	6PPD	360	OFMPub, PubChem
CCCCCCCCOC(=O)c1ccc(C(=O)OCCCCCCCC)c(C(=O)OCCCCCCCC)c1	Tri-n-octyl trimellitate	343	eChemPortal
CC(Cl)C#N (racemic)	n/a	121	OCHEM
CC(C)(OO)c1ccccc1	Cumene hydroperoxide	140.1	PubChem
CC(C)(C)OOC(=O)c1ccccc1	tert-Butyl perbenzoate	112.1	PubChem
O=C(C(F)(F)F)C(F)(C(F)(F)F)C(F)(F)F	1,1,1,3,4,4,4-Heptafluoro-3-(trifluoromethyl)butan-2-one	26.5	eChemPortal
CC(C)=CC1C(C(=O)OCc2cccc(Oc3ccccc3)c2)C1(C)C (stereo not drawn)	Phenothrin	290	OCHEM, PubChem
FC(F)(F)/C=C/Cl	(1E)-1-Chloro-3,3,3-trifluoro-1-propene	19	eChemPortal
CCC12COCN1COC2	7a-Ethyldihydro-1H,3H,5H-oxazolo(3,4-c)oxazole	189.6	eChemPortal
OCC1CN2CCN1CC2 (stereo not drawn)	1,4-Diazabicyclo[2.2.2]octane-2-methanol	280	eChemPortal

Data: OPERA 2.9 data sets, kmansouri/OPERA on GitHub.